Measured values reported in patent US10112955B2, “Isoindoline, azaisoindoline, dihydroindenone and dihydroazaindenone inhibitors of Mnk1 and Mnk2” (eFFECTOR THERAPEUTICS, INC., priority 2015, dated 2018).
Where a name gives a salt, the structure may show the parent alone.

By UniProt entry, the sequences of proteins in these tests, tags left out. Where a name states a change or a piece, a line headed by the entry shows the natural chain unless it says otherwise.
UniProt Q9BUB5: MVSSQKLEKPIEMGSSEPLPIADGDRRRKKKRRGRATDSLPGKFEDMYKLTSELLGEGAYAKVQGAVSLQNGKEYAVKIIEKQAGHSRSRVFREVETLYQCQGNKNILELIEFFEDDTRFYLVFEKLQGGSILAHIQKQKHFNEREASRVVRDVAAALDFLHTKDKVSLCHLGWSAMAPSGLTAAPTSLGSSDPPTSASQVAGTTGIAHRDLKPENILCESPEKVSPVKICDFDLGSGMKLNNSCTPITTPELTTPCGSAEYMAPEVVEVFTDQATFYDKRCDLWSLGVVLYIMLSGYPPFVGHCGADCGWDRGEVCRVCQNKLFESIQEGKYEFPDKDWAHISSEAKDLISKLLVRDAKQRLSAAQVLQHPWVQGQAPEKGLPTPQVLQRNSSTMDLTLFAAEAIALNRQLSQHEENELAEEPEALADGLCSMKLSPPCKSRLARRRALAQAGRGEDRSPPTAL

Target: MNK1 (Homo sapiens (Human), UniProt Q9BUB5)
Experiment: MNK Biochemical Enzymatic Assay (ADP-Glo), MNK1
Settings: 10 nM recombinant MNK1, 100 μM substrate peptide, 300 μM ATP
Procedure: Compounds are screened for MNK inhibition using the ADP-Glo kinase assay kit (Promega, catalogue No. V9101). All kinase reactions are performed in Reaction Buffer E (15 mM HEPES pH7.4, 20 mM NaCl, 1 mM EGTA, 10 mM MgCl2, 0.1 mg/ml BGG, and 0.02% Tween-20). Final MNK1 reactions contained 10 nM recombinant MNK1 (Life Technologies, PR9138A), 100 μM MNK substrate peptide Ac-[…]-NH2 (amino acid sequence shown SEQ ID NO: 1) (American Peptide Company), 300 μM ATP, and varying concentrations of the inhibitory compound of interest. Final MNK2 reactions contained 3 nM recombinant MNK2 (Life Technologies, PV5607), 50 μM MNK substrate peptide Ac-[…]-NH2 (amino acid sequence shown SEQ ID NO: 1) (American Peptide Company), 10 μM ATP, and varying concentrations of the inhibitory compound of interest. Final DMSO concentration in each reaction is 1%.
Kinase reactions are carried out in 96-well half-area white flat-bottom polystyrene plates in a final volume of 25 μl. MNK1/2 enzymes are pre-incubated with compound and peptide substrate for 5 minutes prior to the addition of ATP. After the addition of ATP, kinase reactions are incubated at room temperature for 40 minutes. […] The final luminescent signal used for kinase activity readout is produced by the addition of 45 μl of Kinase Detection Reagent (ADP-Glo kit, Promega) and incubating for 40 minutes.

- IC50: 0.1 to 10 µM
SMILES: CC1(CN)NC(=O)c2ccc(Nc3ccncn3)cc21 (stereo not shown) [Cpd. No. 40, 3-(aminomethyl)-3-methyl-5-(pyrimidin-4-ylamino)isoindolin-1-one hydrochloride salt]
